This passage reports IC50 results from ChEMBL document CHEMBL4325935, “Molecular Basis for the Selective Inhibition of Histone Deacetylase 6 by a Mercaptoacetamide Inhibitor” (ACS Med Chem Lett, 2018).

As usually defined, the IC50 is the midpoint of a concentration-inhibition curve.

Molecules are shown by their SMILES.

This test deals with T1, Histone deacetylase 8 (Homo sapiens, UniProt Q9BY41).
T1 sequence (Q9BY41 whole entry): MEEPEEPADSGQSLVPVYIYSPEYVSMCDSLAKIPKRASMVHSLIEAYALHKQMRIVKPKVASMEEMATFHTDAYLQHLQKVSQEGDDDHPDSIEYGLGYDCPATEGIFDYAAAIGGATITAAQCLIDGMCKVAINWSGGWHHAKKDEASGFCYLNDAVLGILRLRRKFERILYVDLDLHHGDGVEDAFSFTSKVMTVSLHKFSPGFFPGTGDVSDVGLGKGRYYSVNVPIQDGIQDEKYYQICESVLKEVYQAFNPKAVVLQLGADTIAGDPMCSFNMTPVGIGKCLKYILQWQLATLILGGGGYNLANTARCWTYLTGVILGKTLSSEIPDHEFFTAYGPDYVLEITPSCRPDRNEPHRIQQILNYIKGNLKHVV
Nature of the test: Inhibition of full length human N-terminal FLAG-tagged HDAC8 (1 to 377 residues) expressed in HEK293 cells preincubated for 15 mins followed by Boc-[trifluoroacetyl-Lys]-AMC substrate addition measured after 30 mins by fluorimetric method. It is filed as cell-based.

Consider `O=C(CCCCCCC(=O)Nc1ccccc1)NO` [VORINOSTAT], for which the half-maximal inhibitory concentration (IC50) is 669 nM.
